Structures are written as SMILES. The entries are a selection whose mix differs from that of the whole data set. Activity calls are given as the source filed them.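 The calls were made as follows: active = activation above the mean over all tested compounds plus 3 SD (cut at about 30% in these data); inactive = the rest.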

The target in this test is Troponin I, cardiac muscle (Homo sapiens) + Troponin T, cardiac muscle (Homo sapiens) + Troponin C, slow skeletal and cardiac muscles (Homo sapiens) (UniProt P19429+P45379+P63316). Put plainly: cardiac RTF calcium sensitivity activators, primary screen, biochemical, IANBD-TnC fluorescence, EC20 calcium (AID 493008).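 Also: rise in fluorescence read as greater calcium sensitivity of cardiac thin filaments.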 To be noted: IANBD-labeled TnC RTF fluorescence at EC20 calcium; at 7.2 µM; stronger effect = higher value; 0% EC20 calcium, 100% full calcium.
On to `CCCC1OP(=O)(Nc2ccccc2)OCC1CC` (configuration not stated), for which the activation is inactive: -2.07%.
The value for `O=C(/C=C/c1ccccc1)OC1CN2CCC1CC2` (configuration not stated) was inactive: -3.64%; that for `CN(C)C1(CNC(=O)c2ccc(S(C)(=O)=O)cc2)CCCCC1` was inactive: -1.1%; that for `O=P1(Nc2ncccn2)COc2ccccc2OC1` was inactive: 6.33%.
Then `O=[As](O)(c1cccs1)c1cccs1`, with inactive: -2.89%; and `Cc1ccc(OCC(=O)OC2CN3CCC2CC3)cc1` (configuration not stated), with inactive: -0.66%.
Then `O=P1(Nc2ccc(Br)cn2)COc2ccccc2OC1`, with inactive: 3.71%; and `NS(=O)(=O)c1cccc(NC(=O)COC(=O)C(O)(c2ccccc2)c2ccccc2)c1`, with inactive: 4.49%; and `Nc1cccc([As](=O)(O)c2ccccc2)c1`, with inactive: -5.93%.
Take `CCOP(=O)(Nc1ccc(C)cn1)OCC`: the activation is inactive: 3.61%.
On to `CCOP(=O)(NC(=NC(C)c1ccccc1)NC(C)c1ccccc1)OCC` (configuration not stated), for which the activation was inactive: -3.18%.
For the compound `O=P1(Nc2ccccn2)COc2ccccc2OC1`, the activation was inactive: 4.57%.
`CCC1=CC2Cc3nc4ccc(Cl)cc4c(N)c3C(C1)C2` (configuration not stated): the activation was inactive: 3.11%.
The value for `CC(C)(C)C(=O)NC(Sc1ncccn1)C(Cl)(Cl)Cl` (configuration not stated) was inactive: -2.3%; that for `Clc1n[nH]nc1-c1nn[nH][15n]1` was inactive: 0.17%.
Then `COc1ccccc1CNC(=O)COC(=O)C(O)(c1ccccc1)c1ccccc1`, with inactive: 1.32%.
Then `CC1(CBr)Cn2c(nc3ccccc3c2=O)S1` (configuration not stated), with inactive: 6.92%.
For the compound `CC(C)/C=N\N=C(\N)N[N+](=O)[O-]`, the activation was inactive: 3.67%.
In the case of `CN(C(=O)Cc1ccc(Cl)c(Cl)c1)[C@@H]1CCCC[C@H]1N1CCCC1`, the activation is inactive: -1.99%.
The value for `COP1(=S)c2c(C)nn(CCC#N)c2N=C(c2ccc(F)cc2)N1C` (configuration not stated) was inactive: 3.73%.
For `O=C(Nc1ccncc1[N+](=O)[O-])c1ccc([N+](=O)[O-])cc1[N+](=O)[O-]`, the activation was inactive: -2.44%.
As for `O=C(COc1ccccc1)OC1CN2CCC1CC2` (configuration not stated), the activation was inactive: 3.6%.
Then `CCOC(=O)c1ccc(NC(=O)C(C)(CCl)SC)cc1` (configuration not stated), with inactive: -6.67%; and `O=C(OC1CN2CCC1CC2)c1cccc([N+](=O)[O-])c1` (configuration not stated), with inactive: 1.71%; and `CCC(C)N(CC(C)C)C(=S)SC(NC(C)=O)C(Cl)(Cl)Cl` (configuration not stated), with inactive: -1.84%.
The value for `CC1CCNP(=O)(N(CCCl)CCCl)O1` (configuration not stated) was inactive: -3.59%; that for `CCOC(=O)Nc1ccc([As](=O)(O)O)c(O)c1` was inactive: 3.65%; that for `Cc1cc(SC(NC(=O)c2ccccc2)C(Cl)(Cl)Cl)nc(C(C)C)n1` (configuration not stated) was inactive: 10.6%.
Consider `CCCCOc1ccc(C(=O)NCC2(N3CCCCC3)CCCCC2)cc1OC`, for which the activation is inactive: -2.5%.
The value for `CCOC(=O)Nc1cccc([As](=O)(O)O)c1` was inactive: -9.27%.
As to `O=[N+]([O-])c1ccc(Nc2ccc(Oc3ccc([N+](=O)[O-])cc3[N+](=O)[O-])cc2)c([N+](=O)[O-])c1`, the activation is inactive: 2.01%.
The value for `O=P(Nc1ccccn1)(c1cccc2ccccc12)c1cccc2ccccc12` was inactive: 6.05%; that for `Cc1cc(SC(NC=O)C(Cl)(Cl)Cl)ncn1` (configuration not stated) was inactive: 1.36%; that for `O=[N+]([O-])c1ccc(-c2cc([N+](=O)[O-])c(O)c([N+](=O)[O-])c2)cc1` was inactive: -3.82%.
In the case of `COc1cc(C(=O)NCC2(N3CCOCC3)CCCCC2)ccc1OCC(C)C`, the activation is inactive: -2.67%.
Take `C[As](=O)(O)c1cccc(C(=O)O)c1`: the activation was inactive: -6.01%.
For the compound `O=[As](O)(c1ccc(O)cc1)c1ccccc1O`, the activation was inactive: -3.78%.
In the case of `Cc1ccc2nc3c(c(C)c2c1)CC(C(Cl)Cl)S3` (configuration not stated), the activation was inactive: 1.29%.
Then `Cc1ccc(OP(=O)(Nc2ccc([N+](=O)[O-])cn2)Oc2ccc(C)cc2)cc1`, with inactive: -5.12%; and `COC(=O)C1(C)COP(=O)(N2CCCCCC2)OC1` (configuration not stated), with inactive: 4.12%; and `CC(C)c1ccc(OP(=O)(Nc2ccccn2)Oc2ccccc2F)cc1` (configuration not stated), with inactive: 5.13%.
The value for `ClCCSc1nnc(-c2cccnc2)o1` was inactive: 0.3%; that for `O=[N+]([O-])c1cc([N+](=O)[O-])c(-c2ccn[nH]2)s1` was inactive: -6.46%.
As to `O=C(OC1CN2CCC1CC2)c1cccc2[nH]cnc12` (configuration not stated), the activation is inactive: 3.09%.
With `CCN(CC)C(=S)SC(NC=O)C(Cl)(Cl)Cl` (configuration not stated), the activation is inactive: 6.53%.
With `Cc1cc(=O)[nH]c(N[N+](=O)[O-])n1`, the activation was inactive: -3.83%.
Then `O=C(OC1CN2CCC1CC2)C12CC3CC(CC(C3)C1)C2` (configuration not stated), with inactive: 4.29%; and `Cc1c2c(nc3ccccc13)SC(C(Cl)Cl)C2` (configuration not stated), with inactive: -4.56%; and `COc1cc(I)ccc1[As](=O)(O)O`, with inactive: -0.73%.
Then `COc1ccc2nc(NP(=O)(c3ccccc3)c3ccccc3)sc2c1`, with inactive: 5.49%; and `O=P1(N(CCCl)CCCl)Nc2ccccc2N1`, with inactive: 0.18%; and `O=P1(N(CCCl)CCCl)OCCCN1CCCl` (configuration not stated), with inactive: -4.73%.
Then `COc1ccc(N/C(=N/P(=O)(N2CCOCC2)N2CCOCC2)N2CCOCC2)cc1`, with inactive: -2.38%.
Take `O=[N+]([O-])c1cc(Oc2ccc([N+](=O)[O-])cc2C(F)(F)F)cc([N+](=O)[O-])c1`: the activation was inactive: -1%.
With `NC(=O)c1cc([N+](=O)[O-])cc([N+](=O)[O-])c1N`, the activation is inactive: -1.6%.
Take `Cc1ccc(N/C(=N/P(=O)(N2CCOCC2)N2CCOCC2)N2CCOCC2)cc1`: the activation was inactive: 6.16%.
The value for `CN(C(=O)Cc1ccc(Cl)c(Cl)c1)[C@H]1CCCC[C@H]1N1CCCC1` was inactive: 2.72%.
For `COc1ccccc1OP(=O)(Nc1ccc(C)cn1)Oc1ccccc1OC`, the activation was inactive: -2.61%.
Then `CN1CCCC(OC(=O)C(c2ccccc2)c2ccccc2)C1` (configuration not stated), with inactive: 6.05%; and `Clc1ccc(Cl)c(NC2=NCC(CBr)S2)c1` (configuration not stated), with inactive: 2.34%; and `Nc1cc(N)c2nonc2c1[N+](=O)[O-]`, with inactive: -3.54%.
For the compound `CC(C)CC(=O)NC(Sc1ccc(Cl)cc1)C(Cl)(Cl)Cl` (configuration not stated), the activation was inactive: -3.86%.
The value for `O=C(NC(Sc1ccncn1)C(Cl)(Cl)Cl)c1ccccc1` (configuration not stated) was inactive: 8.54%.
Then `Oc1ccccc1CNc1ccccn1`, with inactive: 3.08%.
For `CCCC1OP(N)(=O)OCC1CC` (configuration not stated), the activation was inactive: -3.35%.
Then `CC(=O)Nc1ccc([As](=O)(O)O)cc1`, with inactive: 0.32%.
Then `O=C(O)c1ccccc1[As](=O)(O)O`, with inactive: 2.4%.
Take `O=P(Nc1nc2ccc(Cl)cc2s1)(c1ccccc1)c1ccccc1`: the activation is inactive: 1.56%.
As to `Cc1ccc(NP(=O)(Oc2ccccc2F)Oc2ccccc2F)nc1`, the activation was inactive: 7.94%.
In the case of `CN(C(=O)Cc1ccc(Cl)c(Cl)c1)[C@H]1CCCC[C@@H]1N1CCCC1`, the activation was inactive: 2.83%.
The value for `Cc1cc(SC(NC(=O)c2ccc(F)cc2)C(Cl)(Cl)Cl)ncn1` (configuration not stated) was inactive: -3.32%; that for `CCOP(=O)(Nc1ccccc1)OCC` was inactive: -5.09%; that for `CCN(N=Nc1nonc1N)c1nonc1N` was inactive: -2.88%.
`Nc1cccc2ccc([As](=O)(O)O)cc12`: the activation was inactive: -0.78%.
Then `O=P1(N(CCCl)CCCl)OCCCS1` (configuration not stated), with inactive: -1.25%; and `O=C(Nc1cc([As](=O)(O)O)ccc1O)c1ccccc1`, with inactive: 7.28%; and `CC(C)(C)C(=O)NC(Sc1ccncn1)C(Cl)(Cl)Cl` (configuration not stated), with inactive: 4.34%.
Consider `O=[N+]([O-])c1ncn(CCn2ncnc2[N+](=O)[O-])n1`, for which the activation is inactive: -2.92%.
With `COC(=O)C1(C)COP(=O)(Nc2ccccc2)OC1` (configuration not stated), the activation is inactive: 10.7%.
Then `O=[N+]([O-])c1cccc(NC2=NCC(CBr)S2)c1` (configuration not stated), with inactive: 2.46%; and `O=C(O)CNc1ccc([As](=O)(O)O)cc1`, with inactive: 0.75%; and `COc1ccc(C2=NCC(CBr)S2)cc1` (configuration not stated), with inactive: 2.04%.
The value for `O=[N+]([O-])c1cccc2n[nH]nc12` was inactive: 6.49%.
For the compound `CC(=O)N1C2C3N(C(C)=O)C1C1N(C(C)=O)C(C(N1C(C)=O)N3C(C)=O)N2C(C)=O`, the activation is inactive: -3.73%.
For `CCc1nc2c(n1)c1c(non1O)c1c2no[n+]1[O-]`, the activation was inactive: 1.51%.
The value for `O=[N+]([O-])c1cc([N+](=O)[O-])c(CCNc2ccccc2)c([N+](=O)[O-])c1` was inactive: 0.62%; that for `Cc1ccc(NP(=O)(Oc2ccccc2)Oc2ccccc2)nc1` was inactive: 4.44%; that for `C[N+]1=C2C=CC=CC=C2SC12C([N+](=O)[O-])=CC([N+](=O)[O-])=C[C-]2[N+](=O)[O-]` (configuration not stated) was inactive: -6.21%.
Turning to `Nc1ccc([As](=O)(O)c2ccc(N)cc2)cc1`, the activation was inactive: 8.35%.
Then `CCN(/C(=N/P(=O)(N1CCOCC1)N1CCOCC1)N1CCOCC1)c1ccc(OC)cc1`, with inactive: 0.55%; and `CN(C)C(=O)OCCc1n(C)cc[n+]1C`, with inactive: 0.27%; and `CC(C)=N/N=C(\N)N[N+](=O)[O-]`, with inactive: -5.47%.
The value for `CC1CCN(C(=O)Oc2c(Cl)cc(Cl)c3cccnc23)CC1` was inactive: 2.68%; that for `CC(C)C(=O)NC(Sc1ccccc1)C(Cl)(Cl)Cl` (configuration not stated) was inactive: -4.54%.
For the compound `O=P(Nc1nccs1)(c1ccccc1)c1ccccc1`, the activation is inactive: 1.71%.
Then `c1nnnn1CCn1cnnn1`, with inactive: 9.79%.
The value for `COc1ccc(N)c([N+](=O)[O-])c1[N+](=O)[O-]` was inactive: 1.14%.
Then `O=P(Nc1ccccn1)(c1ccc(Br)cc1)c1ccc(Br)cc1`, with inactive: 8.01%; and `CN(C)C1(CNC(=O)c2ccc(Cl)c(S(N)(=O)=O)c2)CCCCC1`, with inactive: -3.34%; and `C[C@H]1OP(=O)(Oc2ccccc2)[C@H](O)[C@H](O)[C@H]1N=[N+]=[N-]` (some centres not stated), with inactive: -4.35%.
As to `O=P(Nc1nc2ccccc2s1)(c1ccccc1)c1ccccc1`, the activation is inactive: -6.8%.
As for `O=[N+]([O-])c1ccc(O)c(/C=N/Nc2ccc([N+](=O)[O-])cc2[N+](=O)[O-])c1`, the activation was inactive: -3.82%.

Values taken from PubChem BioAssay AID493008 (The Scripps Research Institute Molecular Screening Center, 2010).
